{
  "source": "patent US20240082358A1",
  "about": "“COMPOSITION COMPRISING INHIBITOR AGAINST EXPRESSION OF EXOSOMAL PD-L1 AS ACTIVE INGREDIENT FOR ENHANCING ANTICANCER EFFECT” (KYUNGPOOK NATIONAL UNIVERSITY INDUSTRY-ACADEMIC COOPERATION …, priority 2019, published 2024)",
  "key": {"PD-L1 [1]": {"system": "PD-L1", "experiment": "PD-L1 gene expression in melanoma cells by real-time polymerase chain reaction", "format": "cell-based", "details": "melanoma cells pretreated with IL-2; real-time PCR; FIG. 1(A), FIG. 2(A)", "experimental": "After extracting mRNA (mRNA extraction kit, #9767; TaKaRa) from melanoma cells and melanoma cells pretreated with IL-2, the concentration of mRNA was measured using nanodrop (DS-11 Series Spectrophotometer; DeNovix). After synthesizing cDNA (SuperScript III First-Strand Synthesis System, Ref 18080-051; invitrogen) with 100 ng of mRNA, the gene expression levels of mouse PD-L1 (primer set: Forward: AGTTCCCAAAACATGAGGAT (SEQ ID NO: 1), Reverse: CACGTACAAGTCCTTTGGAG (SEQ ID NO: 2)) and human PD-L1 (primer set: Forward: GGTCATCCCAGAACTACCTC (SEQ ID NO: 3), Reverse: ACGGAAGATGAATGTCAGTG (SEQ ID NO: 4)) were analyzed by performing real-time polymerase chain reaction."}, "melanoma cells (B16F10) [2]": {"system": "melanoma cells (B16F10)", "experiment": "Nanoparticle tracking analysis of exosomes derived from melanoma cells", "format": "cell-based, mouse", "details": "B16F10 treated with IL-2 10 μg/ml, 48 hours, FIG. 3(B)", "experimental": "After treating melanoma cells (B16F10: 5×10^4 cells) with IL-2 at a concentration of 10 μg/ml and culturing for 48 hours, the size and concentration of exosomes derived from the culture supernatant were measured using fast video capture and a Nanosight LM10 (Malvern Instruments) equipped with particle tracking software."}, "Rab 27a": {"system": "Rab 27a", "experiment": "Western blot of Rab protein involved in exosome secretion in melanoma cells", "format": "cell-based", "details": "melanoma cells treated with IL-2, FIG. 5(C)", "experimental": "(§1) In order to re-verify the decrease in the number of exosomes derived from melanoma cells, the expression level of Rab protein involved in exosome secretion and expression was measured by Western blot. Cytoplasm or exosome proteins were separated by SDS-PAGE and transferred to a nitrocellulose membrane. Then, they were cultured with each of primary antibodies (ab18211; abcam/Rab5, ab50533; abcam/Rab7, ab55667; abcam/Rab 27a, #4970; Cell signaling/β-actin, ab10931; abcam/PD-L1), and with HRP conjugated secondary antibodies. Images were visualized using enhanced chemiluminescence (ECL) detection reagent (#34095; Thermo Scientific, #RPN2209; GE Healthcare) and quantified using ECL hyperfilm (AGFA, Morstel)."}, "[3]": {"system": "PD-L1 (programmed death ligand 1) protein", "experiment": "Western blot / immunostaining of PD-L1 protein in melanoma cells", "format": "cell-based", "details": "melanoma cells treated with IL-2, re-verified by immunostaining, FIG. 1(B), 2(B), 2(D)", "experimental": "as §1\nIn addition, to evaluate an effect of IL-2 in melanoma, the expression of PD-L1 (programmed death ligand 1) protein, which is known to be the most important for immune evasion of cancer cells, was measured."}, "exosomal PD-L1": {"system": "exosomal PD-L1", "experiment": "Western blot and flow cytometry of exosomal PD-L1 derived from melanoma", "format": "cell-based", "details": "melanoma treated with IL-2; Western blot, confirmed by flow cytometry; FIG. 4(A), 4(B)", "experimental": "Control melanoma cells were seeded at a density of about 2×10^6 cells/well, and cultured for 24 hours in DMEM medium without fetal bovine serum. After that, in order to isolate exosomes, each supernatant obtained from the cells was successively centrifuged at 300×g, 2500×g, and 10,000×g. Then, the supernatant was filtered through a 0.2 μm syringe filter and centrifuged at 120,000×g. The exosome pellet was resuspended in PBS and centrifuged again at 120,000×g. The purified exosome pellet was resuspended in PBS or 1× cell lysis buffer for the next experiment.\nas §1, with “Morstel). […]” for “Morstel).”"}, "melanoma cells (B16F10) [4]": {"system": "melanoma cells (B16F10)", "experiment": "Co-culture assay of IL-2 treated melanoma cells and cytotoxic T cells", "format": "cell-based, mouse", "details": "melanoma cells pretreated with IL-2, co-culture with CTLL-2 cells (1:1 to 1:10); FIG. 8(B), 9(B)", "experimental": "Melanoma cells (B16F10-luc-g5) having a cytoluminescent gene were used and analyzed using IVIS spectrum (PerkinElmer).\nMelanoma cells were seeded in a 96-well plate at a density of about 5×10^3 cells/well, and melanoma cells pretreated with IL-2 were used as a control. After 48 hours of culture, the cells were cultured with different ratios of CTLL-2 cells (1:1 to 1:10). At the end of culture, MTS reagent was added to each well and cells cultured at 37° C. for 2 hours. After removing MTS containing the supernatant from each well, absorbance was measured at 490 nm using a microplate reader."}, "PD-L1 [5]": {"system": "PD-L1", "experiment": "PD-L1 expression in cancer tissue of melanoma transplanted mouse model", "format": "in vivo", "details": "mouse injected with IL-2; Western blot and immunochemical staining; FIG. 11", "experimental": "B16F10 mouse melanoma cells 1×10 6 were subcutaneously injected into the right flank of balb/c mouse. After 10 days from the start of the experiment, PBS and rhIL-2 (50,000 IU/animal) were directly injected into the cancer tissue every day for 6 days. Thereafter, the cancer tissue (long axis*short axis 2*0.52) of the mouse was measured and compared once every 2 days using an engineering digital caliper.\nAfter extracting the cancer tissue from the mouse of the above experiment and rapid cooling it using liquid nitrogen, RBC lysis buffer was used to remove red blood cells in the tissue, and then cells were obtained by centrifugation at 550×g. The supernatant was then centrifuged continuously at 300×g, 2,500×g, and 10,000×g. Then, the expression of PD-L1 was checked by Western blot and immunochemical staining using the isolated cells."}},
  "data": [
    {"substance": "IL-2: cytokine IL-2, used as a treatment for stage 4 melanoma; inhibitor against expression of exosomal PD-L1", "values": [
      {"measurement": "reduction of gene expression of PD-L1 compared to the control group", "setting": "PD-L1 [1]", "value": "about 50%"},
      {"measurement": "number of exosomes compared to the control group", "setting": "melanoma cells (B16F10) [2]", "value": "decreased"},
      {"measurement": "protein expression of Rab 27a compared to the control group", "setting": "Rab 27a", "value": "significantly reduced"},
      {"measurement": "protein expression of PD-L1 compared to the control group", "setting": "[3]", "value": "significantly reduced"},
      {"measurement": "expression of exosomal PD-L1 compared to the control group", "setting": "exosomal PD-L1", "value": "significantly reduced"},
      {"measurement": "viability of melanoma cells in co-culture with cytotoxic T cells", "setting": "melanoma cells (B16F10) [4]", "value": "significantly reduced"},
      {"measurement": "expression level of PD-L1 in cancer tissue compared to the control group", "setting": "PD-L1 [5]", "value": "significantly reduced"}
    ]}
  ]
}
